From patent US8101777B2, “Ionic liquids based on imidazolium salts incorporating a nitrile functionality” (Ecole Polytechnique Federale de Lausanne, priority 2003, dated 2012)

Assay: Solubility in common solvents

For `CCCCn1cc[n+](C)c1.F[B-](F)(F)F` [[C4mim][BF4], 1-methyl-3-butylimidazolium tetrafluoroborate, reference compound], the “Solubility in common solvents: Hexane” value was “immiscible”.
